Consider 35 molecules from PubChem BioAssay AID2417 (National Center for Advancing Translational Sciences (NCATS), 2010).

The entries are a selection whose mix differs from that of the whole data set. Inconclusive results are not listed. Active and inactive are the calls of the source.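 Rule for the calls: active = readout at or below -70, meaning at least 70% loss of cells showing the perinucleolar compartment, a nuclear body marking cancer cells; inconclusive = readout between -30 and a set limit; inactive = the rest.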

The nature of this test: High Content Assay for Compounds that inhibit the Assembly of the Perinucleolar Compartment.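 Note: plate controls were DMSO wells for no effect and camptothecin positive control wells for full effect.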 The conditions noted are these: PC3M PTB-GFP, PNC prevalence imaging, 16 h; at 10 µM; hits give low values. From the text: High Content Assay for Compounds that inhibit the Assembly of the Perinucleolar Compartment NIH Chemical Genomics Center [NCGC] NIH Molecular Libraries Probe Centers Network [MLPCN] MLPCN Grant: MH082371-01A2 Assay Submitter (PI): Sui Huang, Northwestern University, Feinberg School of Medicine, Cell and Molecular Biology, Chicago, Illinois. The perinucleolar compartment (PNC) is a non-membrane-bound nuclear subdomain that is associated with but structurally distinct from the nucleolus. The PNC is a heritable trait, in which the number of PNCs per cell in daughter cells often mimics that of their mother cells. The PNC is heterogeneous in shape, is stable through interphase, disassembles during mitosis, and reassembles in early G1. The PNC is concentrated with newly synthesized RNA polymerase III (pol III) RNAs (MRP RNA, RNAse P H1 RNA, hY RNAs[hY1, 2, 5], Alu RNA, and SRP [7SL] RNA) and RNA binding proteins (nucleolin, PTB, CUG-BP, KSRP, Raver1, Raver2, and Rod). […] Extensive in vitro studies have shown that the PNC is unique to tumor cells and preferentially forms in tumor cells derived from solid tissues. Examination of cancer cell lines from various origins and malignant capacities has shown that PNC prevalence correlates with the malignancy of tumors and has the potential to be developed as a pan-cancer prognostic marker. […] Although the PNC is associated with a DNA locus and a handful of components have been identified, much remains to be investigated regarding the structure and function of the PNC and its mechanistic link to cancer. We have previously shown that PNC prevalence reduction is a valid strategy to identify compounds that can be used to study the structure and function of the PNC. It is necessary, however, to create a screening platform that is able to test a large number of compounds in an automated fashion. Here we report the development and robustness of an automated whole-cell phenotypic image-based screening assay that is capable of identifying such compounds.
PNC High Content Imaging Assay Procedure: 1. Cells at a density of 75-90% confluency in T175 flasks were harvested using 7 ml TrypLE Express cell dissociation reagent. After dissociation (5 minutes room temperature incubation) 10 ml of complete media was added to the TrypLE/cell suspension. The liquid was transferred to a 50 ml Conical tube and cells were pelleted at 1000 RPM for 5 min. Supernatant was removed and cells were resuspended to a final density of 150-200 cells/ul in complete media. 2. Cells were plated in 5 ul volume (750-1000 cells/well) into 1536 well Black uclear Aurora Low Base plates and allowed to recover and adhere at 37 C in a humidified 5% CO2 incubator for 4 hours. 3. After 4 hour incubation, compound libraries (23 nl of […] in columns 5-48) were transferred to the plates in duplicate using a 1536 well pintool. Camptothecin positive control (59 uM final) was added to column 2 and 1:3 dilutions of camptothecin was added to column 3. DMSO negative controls were present in columns 1 and 4. 4. After a 16 hour incubation in the 37 C incubator, cells were fixed by the addition of 4 ul of 6% EM grade paraformaldehyde (containing 0.1% triton X 100) directly to the cells. The plates were incubated at room temperature for 20 minutes. The liquid was removed using a 32 channel Kalypsys aspirator and the fixed cells were washed twice with 5 ul PBS followed by a final addition of 5 ul PBS containing 1 ug/ml Hoechst 33342. 5. Fixed plates were sealed and sotred at 4C until imaged. 6. Plates were imaged on an InCell 1000 automated microscope using a 20 x objective, a standard FITC filter set, no camera binning, and an exposure time of ~100-150 msec/well. 7. Data analysis. PNC prevalence was determined using the Multitarget analysis module from InCell Workstation software (V3.5 ) and analysis was run on a quad core workstation using the Incell Developer Toolbox (V1.7). […]
For `Cc1cc(C)cc(OP(C)(=O)Nc2ccc(C)cc2C)c1` (stereo not given), the activity change (PNC), negative = inhibition was inactive: -12%.
With `CCOC(=O)c1ccc(NP(C)(=O)Oc2cc(C)cc(C)c2)cc1` (stereo not given), the activity change (PNC), negative = inhibition was inactive: -4.15%.
As for `Cc1cc(C)cc(OP(C)(=O)Nc2ccccn2)c1` (stereo not given), the activity change (PNC), negative = inhibition was inactive: -27.4%.
The same measure for `Cc1ccc(C)c(NP(C)(=O)Oc2ccccc2)c1` (stereo not given): inactive: -4.91%; for `CN1CCCCC1COC(=O)C1(O)c2ccccc2CCc2ccccc21` (stereo not given): inactive: 61.9%; for `COc1ccccc1OP(C)(=O)Nc1c(C)cccc1C` (stereo not given): inactive: -2.16%.
For the molecule `Cc1nc2ccc3ccccc3c2s1.O=[N+]([O-])c1cc([N+](=O)[O-])c(O)c([N+](=O)[O-])c1`, the activity change (PNC), negative = inhibition was inactive: 3.22%.
As to `Cc1cccc(C)c1OP(C)(=O)Nc1ccc(SC(F)(F)F)cc1` (stereo not given), the activity change (PNC), negative = inhibition is inactive: 12.2%.
On to `CCOP(C)(=S)SCC(=O)NC(C)C(=O)O` (stereo not given), for which the activity change (PNC), negative = inhibition was inactive: -6.25%.
With `CCOC(=O)c1ccc(NP(C)(=O)Oc2ccc(OC)cc2)cc1` (stereo not given), the activity change (PNC), negative = inhibition was inactive: -22.4%.
As for `CP(=O)(Nc1ccccn1)Oc1ccc(Cl)cc1` (stereo not given), the activity change (PNC), negative = inhibition is inactive: -8.43%.
For `CP(=S)(Nn1cnnc1)Oc1ccccc1` (stereo not given), the activity change (PNC), negative = inhibition is inactive: 10.5%.
As for `CP(=O)(Nc1ccccc1Br)Oc1ccccc1` (stereo not given), the activity change (PNC), negative = inhibition is inactive: -27.5%.
As to `CC(C)(C)c1ccc(OP(C)(=O)Nc2ccc(SC(F)(F)F)cc2)cc1` (stereo not given), the activity change (PNC), negative = inhibition was inactive: 8.11%.
In the case of `COc1ccccc1OP(C)(=O)Nc1ccc(C)cc1` (stereo not given), the activity change (PNC), negative = inhibition was inactive: -28.5%.
As for `COc1ccc(OP(C)(=O)Nc2cccc(F)c2)cc1` (stereo not given), the activity change (PNC), negative = inhibition was inactive: 16.3%.
As to `CN(C)CCOC(=O)C(O)(c1ccccc1)C1CCCC1` (stereo not given), the activity change (PNC), negative = inhibition was inactive: 5.97%.
For `COc1ccc(OP(C)(=O)Nc2ccccn2)cc1` (stereo not given), the activity change (PNC), negative = inhibition is inactive: 25.2%.
`Cc1c(NP(C)(=O)Oc2ccc(C(C)C)cc2)c(=O)n(-c2ccccc2)n1C` (stereo not given): the activity change (PNC), negative = inhibition was inactive: 55.2%.
Turning to `CCc1ccc(OP(C)(=O)O)cc1`, the activity change (PNC), negative = inhibition was inactive: 54.8%.
As for `COc1ccccc1OP(C)(=O)Nc1ccc(C)cc1C` (stereo not given), the activity change (PNC), negative = inhibition was inactive: -23.7%.
Regarding `COc1ccccc1OP(C)(=O)Nc1ccc(C)c(C)c1` (stereo not given), the activity change (PNC), negative = inhibition is inactive: 26.2%.
Then `Cc1nc2ccc3ccccc3c2o1.O=[N+]([O-])c1cc([N+](=O)[O-])c(O)c([N+](=O)[O-])c1`, with inactive: 34.1%; and `CCOC(=O)c1ccc(NP(C)(=O)Oc2ccc(Cl)cc2)cc1` (stereo not given), with inactive: -26.5%.
`CP(=O)(Oc1ccccc1)N1CCOC1=O` (stereo not given): the activity change (PNC), negative = inhibition is inactive: 42.2%.
Regarding `COc1ccccc1OP(C)(=O)Nc1c(C)n(C)n(-c2ccccc2)c1=O` (stereo not given), the activity change (PNC), negative = inhibition was inactive: 30.1%.
Regarding `CP(=O)(Nc1ccc(Cl)cc1)Oc1ccc(F)cc1` (stereo not given), the activity change (PNC), negative = inhibition was inactive: 12.2%.
For the molecule `CC(C)(C)c1ccc(OP(C)(=O)O)cc1`, the activity change (PNC), negative = inhibition is inactive: 19.4%.
`Cc1ccccc1NP(C)(=O)Nc1ccccc1C`: the activity change (PNC), negative = inhibition is inactive: -19.3%.
On to `CCOC(=O)c1ccc(NP(C)(=O)Oc2ccc(F)cc2)cc1` (stereo not given), for which the activity change (PNC), negative = inhibition was inactive: -5.98%.
The same measure for `CCN(CC)CCCOC(=O)C(O)(c1ccccc1)C1CCCCC1` (stereo not given): inactive: 28.5%; for `CP(=O)(Nc1ccccc1)Oc1ccc(F)cc1` (stereo not given): inactive: 58.9%; for `CC(C)c1ccc(OP(C)(=O)Nc2ccc(SC(F)(F)F)cc2)cc1` (stereo not given): inactive: -29.2%.
Regarding `CP(=O)(Nc1ccccc1F)Oc1ccccc1` (stereo not given), the activity change (PNC), negative = inhibition is inactive: 6.62%.
In the case of `O=C(OCCN1CCN(CCOCc2ccccc2)CC1)C(O)(c1ccccc1)c1ccccc1`, the activity change (PNC), negative = inhibition is inactive: 45%.
